Series [1] deals with T1, PGD2 receptor (Homo sapiens, UniProt Q13258). As to the kind of experiment: Antagonistic activity against PGD2 receptor using human platelet (inhibition of PGD2-induced cAMP increase). As for the experimental part: Experiment 3 Evaluation of Antagonistic Activity Against PGD2 Receptor
Receptor Using Human Platelet
Peripheral blood was collected from a healthy volunteer using a syringe in which 1/9 volume of a citric acid/dextrose solution was previously added. The sample was subjected to centrifugation at 1200 rpm for 10 min to obtain the supernatant (PRP: platelet rich plasma). The resultant PRP was washed 3 times with a washing buffer and the number of platelets was counted with a micro cell counter. A suspension adjusted to contain the platelets at a final concentration of 5×10^8/ml was warmed at 37° C., then subjected to the pre-treatment with 3-isobutyl-1-methylxanthine (0.5 mM) for 5 min. To the suspension was added a test compound diluted at various concentration, and 10 minutes later, 0.1 μM PGD2 was added to induce the reaction 2 minutes later, hydrochloric acid was added to terminate the reaction. The platelet was destroyed with an ultrasonic homogenizer. After centrifugation, the cAMP in the supernatant was determined by radioimmunoassay. PGD2 receptor antagonism of a drug was evaluated as follows: the inhibition rate regarding cAMP increased by the addition of PGD2 was determined at each concentration, and the concentration of the drug required for 50% inhibition (IC50) was calculated.

Amino acid sequences for entries named in this document (tags omitted).
UniProt Q13258, whole entry: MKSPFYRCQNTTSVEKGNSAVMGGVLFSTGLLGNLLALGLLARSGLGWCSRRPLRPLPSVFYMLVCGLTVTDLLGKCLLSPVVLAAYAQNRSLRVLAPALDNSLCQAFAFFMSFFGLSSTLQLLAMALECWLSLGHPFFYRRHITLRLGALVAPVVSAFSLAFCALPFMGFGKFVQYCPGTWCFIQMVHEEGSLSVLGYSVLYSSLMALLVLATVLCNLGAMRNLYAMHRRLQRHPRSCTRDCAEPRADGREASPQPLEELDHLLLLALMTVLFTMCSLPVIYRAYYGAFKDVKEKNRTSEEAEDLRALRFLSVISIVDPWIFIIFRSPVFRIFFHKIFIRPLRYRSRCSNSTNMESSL
UniProt P21731, whole entry: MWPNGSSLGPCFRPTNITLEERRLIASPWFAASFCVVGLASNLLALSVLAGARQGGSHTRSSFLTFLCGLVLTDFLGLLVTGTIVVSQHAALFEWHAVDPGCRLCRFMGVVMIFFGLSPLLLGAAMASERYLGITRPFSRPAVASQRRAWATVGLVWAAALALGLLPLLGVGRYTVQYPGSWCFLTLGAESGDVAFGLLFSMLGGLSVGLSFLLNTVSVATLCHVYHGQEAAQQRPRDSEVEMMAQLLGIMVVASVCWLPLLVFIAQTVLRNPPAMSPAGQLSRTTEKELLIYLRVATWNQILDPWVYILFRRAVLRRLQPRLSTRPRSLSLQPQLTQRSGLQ

Series [2] addresses TXA2 receptor (Homo sapiens, UniProt P21731). As to the kind of experiment: Binding activity to TXA2 receptor ([3H](+)-S-145 sodium salt, human platelet membrane fraction).
For series [3], the target named is T1, PGD2 receptor. The experiment in a line: Binding activity to PGD2 receptor ([3H]PGD2, human platelet membrane fraction). As for the experimental part:
Experiment 1 Binding Activity to PGD2 Receptor
(1) Preparation of Human Platelet Membrane Fraction
Blood was collected using a plastic syringe containing 3.8% sodium citrate from the vein of healthy volunteers (adult male and female), then put into a plastic test tube and mixed by slow-reversion. The sample was then centrifuged at 1800 rpm, for 10 min at room temperature, and the supernatant containing PRP (platelet-rich plasma) was collected. The PRP was re-centrifuged at 2300 rpm, for 22 min at room temperature to obtain platelets. The platelets were homogenized using a homogenizer (Ultra-Turrax) followed by centrifugation 3 times at 20,000 rpm, 10 min at 4° C. to obtain a platelet membrane fraction. After protein determination, the membrane fraction was adjusted to 2 mg/ml and preserved in a refrigerator at −80° C. until using for the binding test.
(2) Binding to PGD2 Receptor
To a binding-reaction solution (50 mM Tris/HCl, pH 7.4, 5 mM MgCl2) (0.2 ml) were added the human platelet membrane fraction (0.1 mg) and 5 nM [^3H]PGD2 (115 Ci/mmol), and the mixture was reacted at 4° C. for 90 min. After the reaction, the mixture was filtered through a glass fiber filter paper and washed several times with cooled physiological saline, then the radioactivity retained on the filter paper was measured. The specific-binding ratio was calculated by subtracting the non-specific binding ratio which is the radioactivity similarly measured in the presence of 10 μM PGD2 from the total binding. The inhibitory activity of each compound was expressed as the concentration required for 50% inhibition (IC50), which was determined by depicting a substitution curve by plotting the binding ratio (%) in the presence of each compound, where the binding ratio in the absence of a test compound is 100%.

Series [4] in a line: Change of plasma concentration of drug in rat (half life of the disappearance after i.v. administration). Conditions: Jcl-SD male rats, 0.5 to 2 mg/kg intravenously, unchanged compound. As for the experimental part: Experiment 4 Change of Plasma Concentration of Drug in Rat
Compound (0.5 to 2 mg/kg) was administered intravenously to Jcl-SD male rats. The concentration of the unchanged compound was measured at 2, 5, 15, 30, 60, 120, and 240 min after the administration by the use of HPLC (determination limit; 0.05 μg/ml) and LC/MS/MS (determination limit; 0.001 μg/ml) and the half life of the disappearance was calculated.

For series [5], the system named is PGD2 receptor. The experiment in a line: Acceleration of vascular permeability of conjunctiva induced by PGD2 (Evans blue dye leakage). As for the experimental part:
Acceleration of Vascular Permeability of Conjunctiva Induced by PGD2 and U-46619
Using male Hartley guinea pigs, PGD2- and TxA2 receptor-mediated increase in conjunctival vascular permeability was produced by instillation of each 10 μl solution of either 0.1% PGD2 or U-46619 (TXA2 receptor agonist) to the both eyes without anesthetization. Immediately after that, Evans blue dye (20 mg/kg) was intravenously injected. 30 min after the challenge, guinea pigs were sacrificed by bleeding under anesthesia with Pentobarbital (30 mg/kg, i.p.) and the tissue of conjunctiva was removed. The dye leaked into the tissue was extracted in formamide 3 ml at 60° C. for more than 24 h, and then centrifuged. The absorbance of the supernatant was measured at 620 nm. The amount of dye was calculated from the calibration curve of Evans blue dye. Each compound was suspended in 0.5% methyl-cellulose and administrated orally at 1 h before the challenge. The antagonistic activity was evaluated by the inhibition ratio against the dye leaked into conjunctiva caused by PGD2 or U-46619 at each dose and then a 50% effective dose of inhibition (ED50 value) of each compound was calculated.

Series [6] deals with Eosinophil Number in Bronchoalveolar Lavage Fluid. The experiment in a line: Antigen-induced increase in the eosinophil number in bronchoalveolar lavage fluid. As for the experimental part:
Antigen-Induced Increase in the Eosinophil Number in Bronchoalveolar Lavage Fluid.
Bronchoalveolar lavage was performed with 10 mL of saline, after the animals were sensitized and challenged with antigen. The number of total cells in the recovered fluid was stained with Türk and counted using hemocytometer. *: P<0.05, **:P<0.01 vs Vehicle(Dunnett's test), ^##: P<0.01 vs Vehicle(Student's t test). ( ): inhibition %.

A further series relates to Male Hartley guinea pigs. The experiment in a line: Antigen-induced bronchial hyperresponsiveness (acetylcholine PD200, OVA-sensitized guinea pigs). As for the experimental part: Comparative Experiment 2 Antigen-Induced Bronchial Hyperresponsiveness
Male Hartley guinea pigs were actively sensitized to ovalbumin (OVA) by inhalation of aerosolized solution of 1% ovalbumin twice at a week interval. One week after the second sensitization, the animals were treated with antihistamine, diphenhydramine (10 mg/kg, i.p.), and then challenged with 1% OVA aerosol for 5 min. Twenty four hours later, acetylcholine at doses at 3.13, 6.25, 12.5, 25, 50 and 100 micro g/kg was sequentially injected into the animals which were anesthetized with pentobarbital (30 mg/kg, i.p.). The bronchoconstriction induced by each dose of acetylcholine was monitored by the modified method of Konzett-Rössler technique, and made a dose-response curve of acetylcholine. Using the dose-response curve, the dose required for 200% increase in bronchoconstriction from baseline (PD200) was calculated in each animal and used as an indication of bronchial responsiveness. Compounds were orally administered 1 hour before antigen challenge. **: P<0.01 vs Vehicle(Dunnett's test), ^##: P<0.01 vs Vehicle(Student's t test).

For series [7], the system named is TxA2 receptor. The experiment in a line: Acceleration of vascular permeability of conjunctiva induced by U-46619 (Evans blue dye leakage).
Where [8] appears, read: read-out: Inhibitory activity for the increase of cAMP caused by PGD2 in human platelet IC50, human platelet, 0.1 μM PGD2.
The mark [9] stands for this setting: read-out: Binding activity to TXA2 receptor in human platelet membrane fraction IC50, human platelet membrane fraction, 2 nM [3H](+)-S-145 sodium salt.
Where [10] appears, read: read-out: Binding activity to PGD2 receptor in human platelet membrane fraction IC50, human platelet membrane fraction.
Setting [11] is: summary of Table 80, oral 1 h before challenge, guinea pig.
[12] abbreviates: 10 mg/kg, bronchoalveolar lavage fluid after antigen challenge.

Molecules are shown by their SMILES. pIC50: −log10 of the molar value. Read-outs that look alike come from different tables or passages of the source.

On to `Cc1cccn1S(=O)(=O)c1ccc(C(=O)N[C@@H]2[C@@H](CCCCCCC(=O)O)C[C@H]3C[C@@H]2C3(C)C)s1`, for which the pIC50 on PGD2 receptor [1] (setting [8]) was 7.24; at TXA2 receptor [2] (setting [9]), 8.38; on PGD2 receptor [3] (setting [10]) it was 8.21.

For the compound `O=C(O)CCCCCC[C@H]1[C@@H]2CC[C@@H](C2)[C@@H]1NC(=O)c1ccc(S(=O)(=O)n2cccc2)s1`, the pIC50 at PGD2 receptor [1] (setting [8]) is 7.46; at TXA2 receptor [2] (setting [9]), 8.34; on PGD2 receptor [3] (setting [10]), 8.12.

Regarding `CC1(C)[C@H]2C[C@H](CCCCOCC(=O)O)[C@@H](NC(=O)c3ccc(Sc4cccs4)s3)[C@@H]1C2`, the values for the pIC50 at PGD2 receptor [1] (setting [8]) and on TXA2 receptor [2] (setting [9]) were 7.68 and 7.57, respectively. Further, in series [4], the “half life of the disappearance” value came to 1.54 h.

With `Cc1cccn1S(=O)(=O)c1ccc(C(=O)N[C@@H]2[C@@H](CCCCCC(=O)O)C[C@H]3C[C@@H]2C3(C)C)s1`, the pIC50 was 7.00 on PGD2 receptor [1] (setting [8]), 7.59 at TXA2 receptor [2] (setting [9]) and 7.33 on PGD2 receptor [3] (setting [10]).

As for `CC1(C)[C@H]2C[C@H](CCCC/C=C/C(=O)O)[C@@H](NC(=O)c3ccc(Sc4cccs4)s3)[C@@H]1C2`, the pIC50 on PGD2 receptor [1] (setting [8]) and at TXA2 receptor [2] (setting [9]) was 7.82 each time. Besides, the “half life of the disappearance” value in series [4] turned out to be 1.12 h.

For the compound `O=C(O)COCCCC[C@H]1[C@@H]2CC[C@@H](C2)[C@@H]1NC(=O)c1csc2c(Cc3ccccc3)cccc12`, the figures for the pIC50 at PGD2 receptor [1] (setting [8]) and on TXA2 receptor [2] (setting [9]) were 7.59 and 7.68, respectively. For the same compound, the “half life of the disappearance” value in series [4] stood at 0.64 h.

With `Cc1cccn1S(=O)(=O)c1ccc(C(=O)N[C@@H]2[C@@H](CCCCC(=O)O)C[C@H]3C[C@@H]2C3(C)C)s1`, the pIC50 on PGD2 receptor [1] (setting [8]) was 7.77; on TXA2 receptor [2] (setting [9]), 9.22; on PGD2 receptor [3] (setting [10]), 8.28.

Take `Cc1cccn1S(=O)(=O)c1ccc(C(=O)N[C@@H]2[C@@H](C/C=C\COCC(=O)O)C[C@H]3C[C@@H]2C3(C)C)s1`: the pIC50 at PGD2 receptor [1] (setting [8]) is 7.70; on TXA2 receptor [2] (setting [9]), 8.60; at PGD2 receptor [3] (setting [10]), 8.19.

As to `O=C(O)CCCCCC[C@H]1[C@@H]2CC[C@@H](C2)[C@@H]1NC(=O)c1ccc(S(=O)(=O)c2cccs2)s1`, the pIC50 on PGD2 receptor [1] (setting [8]) was 7.74; at TXA2 receptor [2] (setting [9]), 8.52; at PGD2 receptor [3] (setting [10]), 7.14.

On to `Cc1cccn1S(=O)(=O)c1ccc(C(=O)N[C@@H]2[C@@H](CCCCOCC(=O)O)C[C@H]3C[C@@H]2C3(C)C)s1`, for which the “ED50 PGD2” value in the series with PGD2 receptor [5] (oral, 1 h before challenge, 0.1% PGD2 instillation, conjunctival dye leakage, guinea pigs) amounted to 0.043 mg/kg. In the series with PGD2 receptor [5] (setting [11]), the “inhibition of the increase in vascular permeability in conjunctiva by the stimulation with PGD2” value is recorded as “showed both responses”. Besides, the Total cells in series [6] (setting [12]) is recorded as 18.29 ± 1.46 × 10^6 cells/animal. Besides, the “inhibition % (total cells in bronchoalveolar lavage fluid)” value in series [6] (setting [12]) came to 36%. The “suppression of eosinophil infiltration” value in series [6] (summary of Table 77 to Table 79, bronchoalveolar lavage fluid) was “significantly suppressed”. In the series on Male Hartley guinea pigs (10 mg/kg orally 1 hour before antigen challenge, acetylcholine dose for 200% increase in bronchoconstriction, 24 h after OVA challenge), the Log PD200 is 1.49 ··. Further, the “inhibition of the induction of bronchial hyperresponsiveness” value in the series on Male Hartley guinea pigs (summary of Table 74 to Table 76, oral, guinea pig) is reported as “suppressed”. The pIC50 at PGD2 receptor [1] (read-out: Experiment 3 Antagonistic activity against PGD2 receptor IC50, comparative experiment in accordance with Experiment 3) was 7.89; at PGD2 receptor [1] (setting [8]) it was 7.89; on TXA2 receptor [2] (setting [9]) it was 8.66; at TXA2 receptor [2] (read-out: Experiment 2 Antagonistic activity against TXA2 receptor IC50, comparative experiment in accordance with Experiment 2), 8.66; on PGD2 receptor [3] (setting [10]), 8.89; on PGD2 receptor [3] (read-out: Experiment 1 Antagonistic activity against PGD2 receptor IC50, comparative experiment in accordance with Experiment 1), 8.89. Also, in the series with TxA2 receptor [7] (oral, 1 h before challenge, 0.1% U-46619 instillation, conjunctival dye leakage, guinea pigs), the “ED50 TXA2 (U-46619)” value was 0.083 mg/kg. The “inhibition of the increase in vascular permeability in conjunctiva caused by U-46619” value in the series on TxA2 receptor [7] (setting [11]) was “showed both responses”.

Consider `Cc1cccn1S(=O)(=O)c1ccc(C(=O)N[C@@H]2[C@@H](C/C=C\CCCC(=O)O)C[C@H]3C[C@@H]2C3(C)C)cc1`, for which the pIC50 at PGD2 receptor [1] (setting [8]) was 9.52; at TXA2 receptor [2] (setting [9]), 7.52; on PGD2 receptor [3] (setting [10]), 8.10.

`CC1(C)[C@H]2C[C@H](CCCCC(=O)O)[C@@H](NC(=O)c3ccc(S(=O)(=O)n4cccc4)s3)[C@@H]1C2`: the pIC50 is 7.18 on PGD2 receptor [1] (setting [8]), 8.92 at TXA2 receptor [2] (setting [9]) and 7.57 on PGD2 receptor [3] (setting [10]).

Regarding `O=C(O)COCCCC[C@H]1[C@@H]2CC[C@@H](C2)[C@@H]1NC(=O)c1csc2c(Cc3ccccc3Cl)cccc12`, the pIC50 on PGD2 receptor [1] (setting [8]) was 7.74; at TXA2 receptor [2] (setting [9]), 7.13.

As to `Cc1cccn1S(=O)(=O)c1ccc(C(=O)N[C@@H]2[C@@H](CCCCCCC(=O)NS(C)(=O)=O)C[C@H]3C[C@@H]2C3(C)C)s1`, the pIC50 was 6.72 at PGD2 receptor [1] (setting [8]) and 7.72 at TXA2 receptor [2] (setting [9]).

Consider `CC1(C)[C@H]2C[C@H](CCCCOCC(=O)O)[C@@H](NC(=O)c3ccc(S(=O)(=O)c4cccs4)s3)[C@@H]1C2`, for which the pIC50 is 7.14 on PGD2 receptor [1] (setting [8]), 8.74 at TXA2 receptor [2] (setting [9]) and 7.62 on PGD2 receptor [3] (setting [10]).

The values are drawn from US7084136B2, “Drug composition antagonistic to both PGD2/TXA2 receptors” (Shionogi & Co., Ltd., priority 2000, dated 2006).
